Format: physicochemical
Protocol: Zofenopril calcium was slurried in ACN. Two molar equivalents of HCl were added. The materials were allowed to slurry overnight. […] The indexed XRPD pattern for the material is shown in FIGS. 1a and 1b. ^1H NMR (DMSO-d6) results were obtained for zofenopril calcium chloride form A sample 7537-40-02 and shown to be consistent with zofenopril with trace amounts of nicorandil and ACN (FIG. 2). DSC for zofenopril calcium chloride is shown as FIG. 3. On DSC this material has an onset at 162° C. This is in contrast to DSC results for zofenopril calcium which has an onset of 250.3° C. TGA results for zofenopril calcium chloride are provided in FIG. 4, there is 1.4% weight loss from 38 to 109° C. and 4.2% weight loss from 110 to 203° C. Based on IC, the calcium to zofenopril ratio is 0.99 to 1, and the chloride to zofenopril ratio is 0.89 to 1, which are consistent with 1:1:1 zofenopril calcium chloride. […] On the sorption step up to 65% RH, the material gained 1.2% weight. Above this RH, the material gained an additional 36.9% weight. […] Most of the weight was lost on desorption with significant hysteresis. The material recovered after the DVS experiment was identified as Zofenopril Calcium Chloride Form A by XRPD (FIG. 6).
This oil, which is zofenopril free acid, was dissolved in ACN. NaOH in water was added to the dissolved zofenopril free acid solution. […]

Question: With “zofenopril calcium chloride [Zofenopril calcium chloride form A]” as the substance, how does the aqueous solubility read?
Answer: The aqueous solubility was “approximately 0.1 mg/ml”.

From US20200253926A1, “THERAPEUTIC COMBINATIONS” (SUPERSALUS, INC., priority 2019, published 2020)
